Data reported in patent publication US6555714B1, “Inhibitors of hydroxyphenylpyruvate dioxygenase and an assay for identification of inhibitors” (Hoechst Aktiengesellschaft, priority 1993, dated 2003).
pIC50: −log10 of the molar value.

Sequences of proteins named here, by UniProt entry; tags and fusion partners are left off. Residues count along the entry.
UniProt A0A1D6H1G0, 1-444: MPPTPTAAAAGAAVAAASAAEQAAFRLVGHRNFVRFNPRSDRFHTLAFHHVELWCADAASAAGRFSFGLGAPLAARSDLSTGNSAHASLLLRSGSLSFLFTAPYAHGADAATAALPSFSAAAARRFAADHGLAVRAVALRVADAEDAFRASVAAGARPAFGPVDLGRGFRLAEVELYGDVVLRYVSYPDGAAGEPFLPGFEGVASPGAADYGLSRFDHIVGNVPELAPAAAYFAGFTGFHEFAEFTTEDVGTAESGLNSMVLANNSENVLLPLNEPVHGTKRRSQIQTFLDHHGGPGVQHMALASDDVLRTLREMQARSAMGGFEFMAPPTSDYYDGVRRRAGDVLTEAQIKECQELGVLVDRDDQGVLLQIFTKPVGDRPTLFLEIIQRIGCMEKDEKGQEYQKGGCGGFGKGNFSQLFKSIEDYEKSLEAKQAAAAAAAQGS

These molecules were tested on Lemna gibba (assay: Growth inhibition of Lemna). Details: 10^−4 M.
Experimental: The IC50 value is the molar concentration of the inhibitor at which 50% of the enzyme activity are inhibited. The growth of Lemna was measured as described in: Schulz, A., Ort, O., Beyer, P. and Kleinig, H.; SC-0051, a 2-benzoylcyclohexane-1,3-dione bleaching herbicide, is a potent inhibitor of the enzyme p-hydroxyphenylpyruvate dioxygenase. FEBS-Letters, 1993, 318 (2), 162-166.

Question: With `CS(=O)(=O)c1ccc(C(=O)c2ccc(Cl)cc2Cl)c(Cl)c1` as the molecule, how does the “Growth inhibition of Lemna (%)” value read?
Answer: The value was 28%.

Question: For `Cc1cc(C)c(C(=O)c2ccc(S(C)(=O)=O)cc2Cl)c(O)c1`, which “Growth inhibition of Lemna (%)” value is on record?
Answer: The value was 80%.

Same assay, conditions: 10^−5 M

Question: How did the “Growth inhibition of Lemna (%)” value turn out when `CS(=O)(=O)c1ccc(C(=O)c2ccc(Cl)cc2Cl)c(Cl)c1` was run?
Answer: The value was 12%.

Question: How did the “Growth inhibition of Lemna (%)” value turn out when `Cc1cc(C)c(C(=O)c2ccc(S(C)(=O)=O)cc2Cl)c(O)c1` was run?
Answer: Its value is 72%.

Same assay, conditions: 10^−6 M

Question: With `Cc1cc(C)c(C(=O)c2ccc(S(C)(=O)=O)cc2Cl)c(O)c1` as the molecule, how does the “Growth inhibition of Lemna (%)” value read?
Answer: The value was 12%.

What follows are molecules tested against anabolic plant HPPD (p-hydroxyphenylpyruvate dioxygenase) from maize (Zea mays, UniProt A0A1D6H1G0) (assay: not given). Details: Table 1 of compounds of formula (I); HPPD inhibition; IC50 is a molar concentration.

Question: With `COc1cc(OC)c(C(=O)c2ccc(Cl)cc2Cl)c(OC)c1` as the molecule, how does the pIC50 read?
Answer: Its pIC50 is 5.46.

Question: With `CS(=O)(=O)c1ccc(C(=O)c2ccc(O)c(F)c2F)c(Cl)c1` as the molecule, how does the pIC50 read?
Answer: The pIC50 was over 9.00.

Question: How did the pIC50 turn out when `CS(=O)(=O)c1ccc(C(=O)c2ccc(F)c(F)c2O)c(Cl)c1` was run?
Answer: The pIC50 was over 8.00.

Question: `Cc1c(Cl)ccc(C(=O)c2ccc(S(C)(=O)=O)cc2Cl)c1Cl` was tested. Which pIC50 did it give?
Answer: The pIC50 was 6.40.

Question: `COc1cc(OC)c(C(=O)c2ccc(Cl)c(Cl)c2O)cc1OC` was tested. Which pIC50 did it give?
Answer: The pIC50 was over 9.00.

Question: How did the pIC50 turn out when `CS(=O)(=O)c1ccc(C(=O)c2c(O)cccc2O)c(Cl)c1` was run?
Answer: The pIC50 was 6.24.

Question: How did the pIC50 turn out when `COc1cc(OC)c(C(=O)c2ccc(S(C)(=O)=O)cc2Cl)c(OC)c1` was run?
Answer: The pIC50 was 5.24.

Question: How did the pIC50 turn out when `CCCc1ccc(C(=O)c2ccc(Cl)c(Cl)c2O)cc1` was run?
Answer: The pIC50 was 7.30.

Question: `CS(=O)(=O)c1ccc(C(=O)c2ccc(O)cc2F)c(Cl)c1` was tested. Which pIC50 did it give?
Answer: Its pIC50 is 7.70.

Question: How did the pIC50 turn out when `Cc1cc(C(=O)c2ccc(S(C)(=O)=O)cc2Cl)c(Cl)cc1O` was run?
Answer: The pIC50 was 6.04.

Question: `CS(=O)(=O)c1ccc(C(=O)c2ccc(Cl)cc2O)c(Cl)c1` was tested. Which pIC50 did it give?
Answer: The pIC50 was over 9.00.

Question: How did the pIC50 turn out when `O=C(c1ccc([N+](=O)[O-])cc1Cl)c1ccc(Cl)c(Cl)c1O` was run?
Answer: The pIC50 was over 9.00.

Question: `CC(=O)Nc1ccc(O)c(C(=O)c2ccc(S(C)(=O)=O)cc2Cl)c1` was tested. Which pIC50 did it give?
Answer: The pIC50 was 8.05.

Question: `CS(=O)(=O)c1ccc(C(=O)c2ccc(Cl)c(Cl)c2O)c(Cl)c1` was tested. Which pIC50 did it give?
Answer: The pIC50 was 8.96.

Question: `CS(=O)(=O)c1ccc(C(=O)c2ccc(F)cc2O)c(Cl)c1` was tested. Which pIC50 did it give?
Answer: Its pIC50 is over 8.00.

Question: `COc1ccc(OC)c(C(=O)c2ccc(S(C)(=O)=O)cc2Cl)c1` was tested. Which pIC50 did it give?
Answer: The pIC50 was 6.62.

Question: With `CC(=O)Oc1cc(C)cc(C)c1C(=O)c1ccc(S(C)(=O)=O)cc1Cl` as the molecule, how does the pIC50 read?
Answer: Its pIC50 is 6.52.

Question: With `CS(=O)(=O)c1ccc(C(=O)c2ccccc2O)c(Cl)c1` as the molecule, how does the pIC50 read?
Answer: The pIC50 was over 9.00.

Question: How did the pIC50 turn out when `O=C(c1cc(O)ccc1O)c1ccc(Cl)cc1Cl` was run?
Answer: Its pIC50 is over 9.00.

Question: How did the pIC50 turn out when `CS(=O)(=O)c1ccc(C(=O)c2ccc(Cl)cc2Cl)c(Cl)c1` was run?
Answer: The pIC50 was over 5.00.

Question: `Cc1ccc(C(=O)c2ccc(Cl)c(Cl)c2O)cc1` was tested. Which pIC50 did it give?
Answer: The pIC50 was 5.46.

Question: How did the pIC50 turn out when `Cc1ccc(O)c(C(=O)c2ccc(S(C)(=O)=O)cc2Cl)c1` was run?
Answer: Its pIC50 is over 9.00.

Question: `CS(=O)(=O)c1ccc(C(=O)c2cc(F)ccc2O)c(Cl)c1` was tested. Which pIC50 did it give?
Answer: The pIC50 was over 9.00.

Question: `CS(=O)(=O)c1ccc(C(=O)c2ccc(O)cc2)c(Cl)c1` was tested. Which pIC50 did it give?
Answer: Its pIC50 is 7.92.

Question: With `CS(=O)(=O)c1ccc(C(=O)c2c(O)c(Cl)cc(Cl)c2Cl)c(Cl)c1` as the molecule, how does the pIC50 read?
Answer: The pIC50 was 6.92.

Question: With `CS(=O)(=O)c1ccc(C(=O)c2cc(Cl)cc(Cl)c2O)c(Cl)c1` as the molecule, how does the pIC50 read?
Answer: The pIC50 was 9.00.

Question: With `Cc1cc(O)c(C(=O)c2ccc(S(C)(=O)=O)cc2Cl)c(O)c1` as the molecule, how does the pIC50 read?
Answer: Its pIC50 is 6.74.

Question: `CS(=O)(=O)c1ccc(C(=O)c2cc(N)ccc2O)c(Cl)c1` was tested. Which pIC50 did it give?
Answer: The pIC50 was 7.40.

Question: How did the pIC50 turn out when `CS(=O)(=O)c1ccc(C(=O)c2ccc(C(F)(F)F)cc2[N+](=O)[O-])c(Cl)c1` was run?
Answer: Its pIC50 is 8.40.

Question: With `COc1ccc(OC)c(C(=O)c2ccc(Cl)cc2Cl)c1` as the molecule, how does the pIC50 read?
Answer: Its pIC50 is 6.01.

Question: `CS(=O)(=O)c1ccc(C(=O)c2ccc(O)c(Cl)c2Cl)c(Cl)c1` was tested. Which pIC50 did it give?
Answer: Its pIC50 is 7.92.

Question: How did the pIC50 turn out when `Cc1cc(C)c(C(=O)c2ccc(S(C)(=O)=O)cc2Cl)c(O)c1` was run?
Answer: The pIC50 was 6.64.

Same assay, conditions: read-out: IC50 value; p-hydroxyphenylpyruvate dioxygenase inhibition, Example 6 table

Question: How did the pIC50 turn out when `CS(=O)(=O)c1ccc(C(=O)c2ccc(Cl)cc2Cl)c(Cl)c1` was run?
Answer: Its pIC50 is under 5.00.
